Test results reported in PMC5467207, “Single-peptide DNA-dependent RNA polymerase homologous to multi-subunit RNA polymerase” (Nature Communications, 2017).

Test system: Nc1ncnc2c1ncn2[C@@H]1O[C@H](COP(=O)(O)OP(=O)(O)OP(=O)(O)O)[C@@H](O)[C@H]1O
Assay: purified protein
Details: 10 °C, assembled elongation complex (template DNA, RNA primer), 20 mM Tris-HCl pH 8.5, 40 mM KCl, 10 mM MgCl2

“E. coli core msRNAP (Escherichia coli K-12)” was tested, and the Km was 0.6 ± 0.2 µM.
